Literature values, collected in article PMC9727064, “Performance assessment and economic analysis of a human Liver-Chip for predictive toxicology” (Communications Medicine, 2022).

How the values were obtained:
[1] = test system: 3D spheroid cultures of primary human hepatocytes; conditions: cited from earlier work
[2] = test system: clinical drug-induced liver injury; conditions: clinical DILI severity category 1 to 5; cited from earlier work

| Structure (SMILES) | Spheroid MOS ([1]; 3D hepatic spheroids, previously published data) | Spheroid false negative ([1]; Yes/No, also No for drugs not tested in spheroid) | Garside DILI rank [2] |
| --- | --- | --- | --- |
| N[C@@H]1[C@H]2CN(c3nc4c(cc3F)c(=O)c(C(=O)O)cn4-c3ccc(F)cc3F)C[C@@H]12 [Trovafloxacin] | >24.9 | – | – |
| O=C(O)Cc1ccccc1Nc1c(Cl)cccc1Cl [Diclofenac] | – | No | 2 |
